Measured values as given in patent US20250288697A1.
Read-outs that look alike come from different tables or passages of the source.

Key:
[1] = target: transmembrane TNFα on CHO/DG44-tm TNFα cells; test: cell-based or functional assay
Canine TNFα (canine) = Canine TNFα (canine) (UniProt P51742); test: SPR (Biacore T200), antibody captured through Fc, TNFα as analyte, 25 C
Macaque TNFα (macaque) = Macaque TNFα (macaque) (UniProt P48094); test: as above
Porcine TNFα (porcine) = Porcine TNFα (porcine) (UniProt P23563); test: as above
Rabbit TNFα (rabbit) = Rabbit TNFα (rabbit) (UniProt P04924); test: SPR (Biacore T200), antibody captured through Fc, TNFα as analyte, 25 C; ka and kd ND
[2] = target: recombinant rat TNFα (rat) (UniProt P16599); test: as above
[3] = target: transmembrane TNFα on CHO/DG44-tm TNFα cells; test: cell-based or functional assay; remark: listed apart in the source

Substance	ADCC, % target cell lysis: Bottom (% target cell lysis) [1]	ADCC, % target cell lysis: Span (% target cell lysis) [1]	ADCC, % target cell lysis: Top (% target cell lysis) [1]	ADCC: EC50 [1]	ADCC: LogEC50 [1]	CDC, % target cell lysis: Bottom (% target cell lysis) [1]	CDC, % target cell lysis: Span (% target cell lysis) [1]	CDC, % target cell lysis: Top (% target cell lysis) [1]	CDC: EC50 [1]	CDC: LogEC50 [1]	Kd (Canine TNFα (canine))	Kd (Macaque TNFα (macaque))	Kd (Porcine TNFα (porcine))	Kd (Rabbit TNFα (rabbit))	Kd [2]	CDC: EC50 [3]
Vectorized adalimumab IgG (full-length adalimumab expressed from pAAV.CAG.adalimumab.IgG / AAV8.CAG.adalimumab.IgG) (antibody)	-3.47	33.7	30.3	0.0168 mg/L	-1.77	3.1	86.2	89.3	8.41 mg/L	0.925	1.54 nM	0.72 nM	2.05 nM	614 nM	726 nM	
Adalimumab (commercial adalimumab antibody, HUMIRA)	-2.72	49.5	46.7	0.0129 mg/L	-1.89		92.1	96.7	0.758 mg/L	-0.12	1.49 nM	0.772 nM	2.17 nM	528 nM	681 nM	0.44 mg/L
